{"source": "patent EP4737453A1", "about": "“NOVEL SELENOPHENE DERIVATIVES” (Aigen Sciences Inc., priority 2023, dated 2025)", "assay_in_all_cases": "biochemical", "key": {"[1]": {"target": "T1, SOS1 and KRAS G12V interaction (Homo sapiens, UniProt Q07889)", "T1 sequence (Q07889 564-1049 limits assumed)": "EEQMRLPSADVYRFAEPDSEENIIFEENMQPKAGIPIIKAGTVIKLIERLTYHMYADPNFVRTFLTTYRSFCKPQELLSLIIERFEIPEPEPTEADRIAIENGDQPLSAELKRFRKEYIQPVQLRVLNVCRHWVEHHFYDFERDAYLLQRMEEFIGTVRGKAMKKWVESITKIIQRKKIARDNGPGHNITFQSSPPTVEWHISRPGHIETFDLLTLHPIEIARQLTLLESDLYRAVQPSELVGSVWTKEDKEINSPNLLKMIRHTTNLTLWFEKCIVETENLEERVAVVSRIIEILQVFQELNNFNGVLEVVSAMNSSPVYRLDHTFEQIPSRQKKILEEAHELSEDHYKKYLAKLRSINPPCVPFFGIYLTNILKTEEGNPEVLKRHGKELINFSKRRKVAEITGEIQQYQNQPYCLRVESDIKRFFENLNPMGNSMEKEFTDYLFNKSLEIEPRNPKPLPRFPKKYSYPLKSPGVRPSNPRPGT"}, "[2]": {"target": "T2, SOS1 and KRAS G13D interaction (Homo sapiens, UniProt Q07889)", "T2 sequence (Q07889 564-1049 limits assumed)": "T1 sequence (Q07889 564-1049 limits assumed)"}, "[3]": {"target": "T3, SOS1 and KRAS wild-type interaction (Homo sapiens, UniProt Q07889)", "T3 sequence (Q07889 564-1049 limits assumed)": "T1 sequence (Q07889 564-1049 limits assumed)"}}, "data": [{"smiles": "CNCc1ccccc1-c1c[se]c([C@@H](C)Nc2nc(C)nc3cc(OC)c(OC)cc23)c1", "note": "[Example 1, (R)-6,7-dimethoxyl-2-methyl-N-(1-(4-(2-((methylamino)methyl)phenyl)selenophen-2-yl)ethyl)quinazolin-4-amine]", "values": [{"measurement": "IC50", "setting": "[1]", "value": 16.9, "unit": "nM"}, {"measurement": "IC50", "setting": "[2]", "value": 12.5, "unit": "nM"}, {"measurement": "IC50", "setting": "[3]", "value": 9.56, "unit": "nM"}]}]}
